Key:
[1] = target: human ERα binding to flcERE (Homo sapiens, UniProt P03372); test: FAMA: inhibition of ERα binding to flcERE; conditions: read-out: IC50 ERα, binding to HRE, 5 concentrations 0.5-10 μM, sequential method
[2] = target: human androgen receptor (AR) binding to flARE (Homo sapiens, UniProt P10275); test: FAMA: inhibition of AR binding to flcARE; conditions: read-out: IC50 AR, binding to HRE, 5 concentrations 0.5-10 μM, sequential method
[3] = target: human PR-B binding to flPRE (Homo sapiens, UniProt P06401); test: FAMA: inhibition of PR binding to flcPRE; conditions: read-out: IC50 PR, binding to HRE, 5 concentrations 0.5-10 μM, sequential method

Sequences of proteins named here, by UniProt entry; tags and fusion partners are left off.
UniProt P03372, whole entry: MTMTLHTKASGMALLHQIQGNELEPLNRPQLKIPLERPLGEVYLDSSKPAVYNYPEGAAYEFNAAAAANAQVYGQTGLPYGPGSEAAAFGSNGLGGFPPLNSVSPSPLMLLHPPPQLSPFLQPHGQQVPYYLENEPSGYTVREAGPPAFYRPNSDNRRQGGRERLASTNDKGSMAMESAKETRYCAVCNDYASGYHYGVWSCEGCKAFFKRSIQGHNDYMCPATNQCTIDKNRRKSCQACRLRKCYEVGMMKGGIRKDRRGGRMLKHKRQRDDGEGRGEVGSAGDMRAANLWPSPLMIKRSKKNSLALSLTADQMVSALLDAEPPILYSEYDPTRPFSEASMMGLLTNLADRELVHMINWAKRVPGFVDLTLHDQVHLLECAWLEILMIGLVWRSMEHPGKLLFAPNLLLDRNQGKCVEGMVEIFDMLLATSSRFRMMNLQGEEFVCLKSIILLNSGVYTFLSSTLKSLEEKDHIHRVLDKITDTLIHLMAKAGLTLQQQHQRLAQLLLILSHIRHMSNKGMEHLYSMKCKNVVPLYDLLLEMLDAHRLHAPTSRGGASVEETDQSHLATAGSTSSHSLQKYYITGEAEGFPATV
UniProt P10275, whole entry: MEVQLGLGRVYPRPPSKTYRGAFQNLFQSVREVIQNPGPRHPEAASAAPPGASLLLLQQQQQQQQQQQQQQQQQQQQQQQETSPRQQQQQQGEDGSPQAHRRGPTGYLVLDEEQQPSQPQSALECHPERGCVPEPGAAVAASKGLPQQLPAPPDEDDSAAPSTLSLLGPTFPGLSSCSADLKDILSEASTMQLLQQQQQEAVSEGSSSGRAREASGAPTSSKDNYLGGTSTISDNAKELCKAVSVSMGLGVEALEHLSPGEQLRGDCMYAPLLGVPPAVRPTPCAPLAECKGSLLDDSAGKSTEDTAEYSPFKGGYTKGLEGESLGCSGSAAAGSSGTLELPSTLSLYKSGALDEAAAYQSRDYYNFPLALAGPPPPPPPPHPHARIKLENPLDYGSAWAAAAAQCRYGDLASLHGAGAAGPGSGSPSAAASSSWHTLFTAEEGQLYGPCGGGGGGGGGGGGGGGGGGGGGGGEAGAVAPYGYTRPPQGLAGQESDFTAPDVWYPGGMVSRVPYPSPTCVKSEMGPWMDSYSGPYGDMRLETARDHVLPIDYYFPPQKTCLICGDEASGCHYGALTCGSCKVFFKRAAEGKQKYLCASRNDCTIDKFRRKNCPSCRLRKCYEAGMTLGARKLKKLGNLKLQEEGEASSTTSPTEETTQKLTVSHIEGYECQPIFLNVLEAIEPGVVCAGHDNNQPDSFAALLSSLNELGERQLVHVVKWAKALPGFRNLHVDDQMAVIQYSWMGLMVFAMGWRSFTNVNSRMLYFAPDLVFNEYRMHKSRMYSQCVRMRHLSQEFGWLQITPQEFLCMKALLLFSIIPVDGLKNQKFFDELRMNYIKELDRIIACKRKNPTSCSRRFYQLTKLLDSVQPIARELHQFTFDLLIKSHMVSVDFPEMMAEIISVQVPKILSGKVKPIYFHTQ
UniProt P06401, whole entry: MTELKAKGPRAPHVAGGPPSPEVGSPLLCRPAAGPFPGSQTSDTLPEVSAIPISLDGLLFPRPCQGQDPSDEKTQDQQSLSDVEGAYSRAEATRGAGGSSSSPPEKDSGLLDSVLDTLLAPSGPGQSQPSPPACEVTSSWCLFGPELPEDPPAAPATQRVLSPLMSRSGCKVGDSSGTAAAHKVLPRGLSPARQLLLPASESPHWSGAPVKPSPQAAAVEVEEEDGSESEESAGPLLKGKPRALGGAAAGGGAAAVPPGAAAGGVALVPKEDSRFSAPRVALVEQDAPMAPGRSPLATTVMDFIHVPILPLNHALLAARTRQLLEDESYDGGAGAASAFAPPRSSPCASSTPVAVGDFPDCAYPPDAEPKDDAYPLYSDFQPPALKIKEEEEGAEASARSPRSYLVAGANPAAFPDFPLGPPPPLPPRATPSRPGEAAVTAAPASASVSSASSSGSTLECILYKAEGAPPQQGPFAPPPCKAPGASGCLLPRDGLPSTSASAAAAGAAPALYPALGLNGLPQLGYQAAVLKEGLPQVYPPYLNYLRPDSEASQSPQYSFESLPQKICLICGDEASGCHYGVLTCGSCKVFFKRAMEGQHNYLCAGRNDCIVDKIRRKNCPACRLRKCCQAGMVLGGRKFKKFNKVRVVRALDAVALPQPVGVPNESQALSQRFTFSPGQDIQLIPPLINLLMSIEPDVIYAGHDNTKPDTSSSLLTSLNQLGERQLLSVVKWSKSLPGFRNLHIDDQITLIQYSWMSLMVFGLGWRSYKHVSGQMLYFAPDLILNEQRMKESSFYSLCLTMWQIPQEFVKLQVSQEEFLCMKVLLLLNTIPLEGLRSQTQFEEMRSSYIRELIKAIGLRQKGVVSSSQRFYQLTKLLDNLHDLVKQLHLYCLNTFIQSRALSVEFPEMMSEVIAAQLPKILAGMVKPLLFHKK

`CC(C)(C)c1cc2c(O)c(c1)Cc1cc(C(C)(C)C)cc(c1O)Cc1cc(C(C)(C)C)cc(c1O)Cc1cc(C(C)(C)C)cc(c1O)Cc1cc(C(C)(C)C)cc(c1O)Cc1cc(C(C)(C)C)cc(c1O)Cc1cc(C(C)(C)C)cc(c1O)Cc1cc(C(C)(C)C)cc(c1O)C2` was tested, and the IC50 [1] was 2 µM, the IC50 [2] was > 10 µM and the IC50 [3] was > 10 µM.

Reference: patent US8871751B2, “Compositions and methods relating to nuclear hormone and steroid hormone receptors including inhibitors of estrogen receptor alpha-mediated gene expression and inhibition of breast cancer” (The Board of Trustees of the University of Illinois, priority 2008, dated 2014)
